Laboratory results published in patent US20150197480A9 (Academia Sinica, priority 2013, published 2015).

Chains of the proteins cited; added tags and fusions are not shown. Residues count along the entry.
UniProt P43220, 24-463 limits assumed: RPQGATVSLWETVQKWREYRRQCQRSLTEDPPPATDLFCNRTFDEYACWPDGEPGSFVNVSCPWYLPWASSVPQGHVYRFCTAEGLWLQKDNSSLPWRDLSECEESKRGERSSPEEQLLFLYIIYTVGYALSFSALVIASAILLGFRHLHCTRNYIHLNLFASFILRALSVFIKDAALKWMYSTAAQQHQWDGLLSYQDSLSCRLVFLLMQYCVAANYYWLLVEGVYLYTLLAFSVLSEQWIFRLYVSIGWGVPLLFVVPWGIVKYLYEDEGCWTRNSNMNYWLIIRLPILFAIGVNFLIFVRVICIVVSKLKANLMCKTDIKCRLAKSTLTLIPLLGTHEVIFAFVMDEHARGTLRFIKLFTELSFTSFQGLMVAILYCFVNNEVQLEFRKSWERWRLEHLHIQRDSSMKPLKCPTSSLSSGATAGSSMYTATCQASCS
UniProt P32301, 22-463 limits assumed: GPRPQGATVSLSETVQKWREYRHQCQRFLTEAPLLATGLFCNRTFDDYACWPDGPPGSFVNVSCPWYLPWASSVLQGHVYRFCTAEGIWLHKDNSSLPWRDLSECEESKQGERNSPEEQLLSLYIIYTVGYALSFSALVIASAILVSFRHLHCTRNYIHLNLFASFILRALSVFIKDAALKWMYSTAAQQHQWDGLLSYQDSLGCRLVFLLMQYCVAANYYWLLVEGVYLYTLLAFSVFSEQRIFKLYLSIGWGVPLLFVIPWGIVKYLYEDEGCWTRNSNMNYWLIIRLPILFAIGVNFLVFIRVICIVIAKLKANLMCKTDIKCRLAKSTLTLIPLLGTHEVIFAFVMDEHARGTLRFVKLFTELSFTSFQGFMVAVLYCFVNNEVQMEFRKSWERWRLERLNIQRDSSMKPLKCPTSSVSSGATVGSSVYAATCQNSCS

What was measured:
[1] = system: cAMP production elicited by glucagon; settings: 0.025 mg/ml; FIG. 11
[2] = system: cAMP production elicited by GIP; settings: 0.025 mg/ml; FIG. 11
GLP-1 receptor [3] = target: GLP-1 receptor (Homo sapiens, UniProt P43220); experiment: Receptor endocytosis assay, U2OS cells co-expressing GLP-1 receptor and β-arrestin2:GFP; format: cell-based
GLP-1 receptor [4] = target: GLP-1 receptor (Rattus norvegicus, UniProt P32301)

## C=C1CC[C@H]2C(C)(C)CCC[C@]2(C)[C@H]1C/C=C(/C=O)CC=O
[1]
  effect on cAMP production elicited by glucagon: do not affect
[2]
  effect on cAMP production elicited by GIP: do not affect
GLP-1 receptor [3]; FIG. 8, plus 1.8 mM of Exendin 9
  positive modulation effect on GLP-1 elicited receptor endocytosis in the presence of exendin 9: diminished
GLP-1 receptor [3]; Table 2, printed (100%), GLP-1 only or GLP-1 plus indicated compound
  Efficacy of GLP-1 to elicit receptor endocytosis: 106.6%
GLP-1 receptor [4]
  IC50: 0.3 µg/mL (≈ 0.992 µM)

Converted amounts (≈) assume the structure as drawn.
